PubChem BioAssay AID1511 (Johns Hopkins Ion Channel Center, 2009)
The list shows a part of the results, in another mix than the full data. Active and inactive are the calls of the source.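 The calls were made as follows: active = activation above the mean of controls blocked by dofetilide plus 5 SD; inactive = the rest.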

Sequences of proteins named here, by UniProt entry; tags and fusion partners are left off. A change or cut given only in a name is not applied to a line headed by its entry.
UniProt Q12809: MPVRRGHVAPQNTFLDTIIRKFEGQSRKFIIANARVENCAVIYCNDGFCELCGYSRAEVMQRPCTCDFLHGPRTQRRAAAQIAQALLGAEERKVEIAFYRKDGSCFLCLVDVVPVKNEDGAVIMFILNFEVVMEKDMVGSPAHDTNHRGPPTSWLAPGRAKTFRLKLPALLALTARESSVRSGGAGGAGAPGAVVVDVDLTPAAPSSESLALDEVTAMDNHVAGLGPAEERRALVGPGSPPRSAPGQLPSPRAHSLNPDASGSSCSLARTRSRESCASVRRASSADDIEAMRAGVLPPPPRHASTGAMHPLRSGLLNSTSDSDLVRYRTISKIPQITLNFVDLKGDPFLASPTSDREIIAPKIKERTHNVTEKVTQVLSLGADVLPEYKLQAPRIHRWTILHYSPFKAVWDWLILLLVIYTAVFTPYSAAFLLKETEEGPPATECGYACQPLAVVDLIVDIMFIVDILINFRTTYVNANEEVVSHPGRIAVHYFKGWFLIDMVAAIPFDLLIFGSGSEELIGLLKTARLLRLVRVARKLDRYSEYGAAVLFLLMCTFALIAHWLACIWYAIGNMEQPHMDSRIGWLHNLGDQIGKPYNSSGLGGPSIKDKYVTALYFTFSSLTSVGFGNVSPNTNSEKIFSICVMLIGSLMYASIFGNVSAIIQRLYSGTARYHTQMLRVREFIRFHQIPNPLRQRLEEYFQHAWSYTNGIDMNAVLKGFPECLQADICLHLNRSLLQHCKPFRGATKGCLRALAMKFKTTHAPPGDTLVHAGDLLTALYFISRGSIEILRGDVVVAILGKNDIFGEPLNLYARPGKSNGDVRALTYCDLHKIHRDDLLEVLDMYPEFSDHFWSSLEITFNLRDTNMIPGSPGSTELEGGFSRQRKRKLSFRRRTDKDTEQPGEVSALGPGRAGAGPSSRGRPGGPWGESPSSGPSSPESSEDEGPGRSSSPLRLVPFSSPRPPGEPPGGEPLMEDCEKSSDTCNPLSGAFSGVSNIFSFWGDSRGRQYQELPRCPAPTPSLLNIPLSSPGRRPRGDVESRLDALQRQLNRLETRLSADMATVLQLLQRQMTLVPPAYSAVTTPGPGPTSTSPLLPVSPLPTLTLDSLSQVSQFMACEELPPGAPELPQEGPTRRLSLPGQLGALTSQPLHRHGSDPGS

The compounds below were run against Voltage-gated inwardly rectifying potassium channel KCNH2 (Homo sapiens) (UniProt Q12809) (assay: PubChem AID 1511). Conditions: CHO-hERG, FluxOR thallium flux, dofetilide IC70 present; at 10 µM; hits give high values.
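Also: thallium influx through hERG after potassium depolarization seen as dye fluorescence rise.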

| Compound | activation (rescue from dofetilide block), less the hit threshold |
| --- | --- |
| C[As](=O)(O)c1cccc(C(=O)O)c1 | inactive: -7.25% |
| O=[As](O)(c1ccc(O)cc1)c1ccccc1O | inactive: -2.59% |
| N#CCCN(C(=O)COC(=O)C(O)(c1ccccc1)c1ccccc1)c1ccc(F)cc1 | inactive: -7.79% |
| CN(C(=O)Cc1ccccc1)[C@@H]1CC[C@]2(CCCO2)C[C@H]1N1CCCC1 | inactive: -6.33% |
| CCOP1(=S)c2c(C)nn(CCC#N)c2N=C(c2ccc(F)cc2)N1C (stereo not drawn) | inactive: 0.93% |
| O=[N+]([O-])c1ccc2c(c1)nnn2O | inactive: -6.36% |
| CN(C)C(=O)c1cc([N+](=O)[O-])cc2c1-c1c(cc([N+](=O)[O-])cc1[N+](=O)[O-])C2=O | inactive: -22.2% |
| CN(C(=O)Cc1ccc(Cl)c(Cl)c1)[C@H]1CC[C@@]2(CCCO2)C[C@@H]1N1CCCC1 | inactive: -3.93% |
| NC(=O)Nc1ccc([As](=O)(O)O)cc1 | inactive: -3.92% |
| O=C(O)COc1ccc([As](=O)(O)O)cc1[N+](=O)[O-] | inactive: -13.5% |
| Nc1ccccc1[As](=O)(O)c1ccccc1 | inactive: -3.12% |
| CCOP1(=S)c2c(C)nn(CCC#N)c2N=C(c2ccccc2F)N1C (stereo not drawn) | inactive: -4.29% |
| O=P(Nc1nccs1)(Oc1ccccc1)Oc1ccccc1 | inactive: -7.48% |
| O=P(Nc1nccs1)(c1ccccc1)c1nc2ccccc2s1 (stereo not drawn) | inactive: -10.5% |
| CS(=O)(=O)c1cc([N+](=O)[O-])c2no[n+]([O-])c2c1 | inactive: -3.93% |
| COc1cc(C2NCCC3(OCCO3)C2(C)C)cc(OC)c1OC (stereo not drawn) | inactive: -2.72% |
| CCOP(=O)(Nc1cccc2ccccc12)OCC | inactive: -6.88% |
| Nc1cccc2c([As](=O)(O)O)cccc12 | inactive: -7.76% |
| Cc1ccc(NCCc2c([N+](=O)[O-])cc([N+](=O)[O-])cc2[N+](=O)[O-])cc1 | inactive: -7.94% |
| CCCOP(=S)(Nc1nc(N)cc(=O)[nH]1)OCCC | inactive: -5.59% |
| Cc1cccc(OCC(=O)OC2CN3CCC2CC3)c1 (stereo not drawn) | inactive: -8.81% |
| O=[As](O)(c1cccc(O)c1)c1cccc(O)c1 | inactive: -14% |
| O=C(OC1CN2CCC1CC2)c1ccc(Cl)cc1 (stereo not drawn) | inactive: -8.7% |
| O=[As](O)(O)c1cccnc1 | inactive: -5.55% |

| Compound | activation (rescue from dofetilide block), less the hit threshold |
| --- | --- |
| COc1cc(C(=O)NCC2(N3CCOCC3)CCCCC2)cc(Cl)c1OC(C)C | inactive: -7.04% |
| CS(=O)(=O)c1ccc(Cl)c(NC(=O)COC(=O)C(O)(c2ccccc2)c2ccccc2)c1 | inactive: -15% |
| CN(C(=O)Cc1ccc(Cl)c(Cl)c1)[C@@H]1CCCC[C@H]1N1CCCC1 | inactive: -5.61% |
| CC(C)/C=N\N=C(\N)N[N+](=O)[O-] | inactive: -1.37% |
| O=[As](O)(c1ccccc1Br)c1ccccc1Br | inactive: -6.93% |
| CC1(CBr)Cn2c(nc3ccccc3c2=O)S1 (stereo not drawn) | inactive: -4.5% |
| COc1ccccc1CNC(=O)COC(=O)C(O)(c1ccccc1)c1ccccc1 | inactive: -13.8% |
| Clc1n[nH]nc1-c1nn[nH][15n]1 | inactive: -4.76% |
| CC(C)(C)C(=O)NC(Sc1ncccn1)C(Cl)(Cl)Cl (stereo not drawn) | inactive: -3.47% |
| CCC1=CC2Cc3nc4ccc(Cl)cc4c(N)c3C(C1)C2 (stereo not drawn) | inactive: -18.1% |
| O=P1(Nc2ccccn2)COc2ccccc2OC1 | inactive: -12% |
| CCOP(=O)(NC(=NC(C)c1ccccc1)NC(C)c1ccccc1)OCC (stereo not drawn) | inactive: -0.58% |
| CCOP(=O)(Nc1ccc(C)cn1)OCC | inactive: -8.15% |
| CN(CCCl)Cc1cc(Cl)c(NC2=NCCN2)c(Cl)c1 | inactive: -4.53% |
| Nc1cccc([As](=O)(O)c2ccccc2)c1 | inactive: -1.96% |
| O=[As](O)(c1cccs1)c1cccs1 | inactive: -3.73% |
| Cc1ccc(OCC(=O)OC2CN3CCC2CC3)cc1 (stereo not drawn) | inactive: -3.81% |
| O=P1(Nc2ccc(Br)cn2)COc2ccccc2OC1 | inactive: -9.39% |
| O=P1(Nc2ncccn2)COc2ccccc2OC1 | inactive: -7.3% |
| CN(C)C1(CNC(=O)c2ccc(S(C)(=O)=O)cc2)CCCCC1 | inactive: -3.1% |
| O=C(/C=C/c1ccccc1)OC1CN2CCC1CC2 (stereo not drawn) | inactive: -5.01% |
| Cc1nn(-c2ccccc2)c2c1P(=O)(N1CCOCC1)N(C)C(c1ccccc1)=N2 (stereo not drawn) | inactive: -0.15% |
| Cc1ccc(C(=O)OC2CN3CCC2CC3)cc1 (stereo not drawn) | inactive: -2.35% |
| CC1CCC(C(C)C)C(OP(=O)(Nc2ccccn2)c2ccccc2)C1 (stereo not drawn) | inactive: -22.3% |
